From ChEMBL document CHEMBL1139192, “Novel bis(indolyl)maleimide pyridinophanes that are potent, selective inhibitors of glycogen synthase kinase-3” (Bioorg Med Chem Lett, 2007)

The chains behind the UniProt entries cited, without tags or fusion partners.
UniProt P49137, whole entry, looked up: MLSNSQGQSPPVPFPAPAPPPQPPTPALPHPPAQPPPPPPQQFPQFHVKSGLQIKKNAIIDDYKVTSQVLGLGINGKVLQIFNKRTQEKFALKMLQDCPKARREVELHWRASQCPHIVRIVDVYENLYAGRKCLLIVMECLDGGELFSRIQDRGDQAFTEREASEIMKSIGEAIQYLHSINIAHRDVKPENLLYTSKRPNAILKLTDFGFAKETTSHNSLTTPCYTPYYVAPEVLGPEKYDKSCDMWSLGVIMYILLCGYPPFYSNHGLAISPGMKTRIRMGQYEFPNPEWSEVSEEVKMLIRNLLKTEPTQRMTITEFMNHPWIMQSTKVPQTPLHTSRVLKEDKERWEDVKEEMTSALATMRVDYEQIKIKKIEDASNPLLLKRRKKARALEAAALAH

What was measured:
[1] = target: MAP kinase-activated protein kinase 2 (Homo sapiens) (UniProt P49137); test: Inhibition of MAPKAPK2 at 1 uM relative to control; values are per cent of control
[2] = Inhibition of MEK1 at 1 uM relative to control; values are per cent of control; details: Homo sapiens
Saccharomyces cerevisiae = test: Residual activity of yeast CK1 at 1 uM relative to control
Rattus norvegicus = organism: Rattus norvegicus; test: Inhibition of rat CaMK2 at 1 uM relative to control; values are per cent of control
Homo sapiens = organism: Homo sapiens; test: Residual activity of human CDK1/Cyclin B at 1 uM relative to control

residual activity [1]: 95%
residual activity [2]: 98%
residual activity (Saccharomyces cerevisiae): 98%
residual activity (Rattus norvegicus): 98%
residual activity (Homo sapiens): 98%
SMILES: O=C1NC(=O)C2=C1c1cn(c3ccccc13)CCCc1ccc(c(N3CCCC3)n1)CCCn1cc2c2ccccc21
